Legend:
CRF2R = molecular target: T1, CRF2R (Homo sapiens, UniProt Q13324); experiment: CRF2R agonist activity (EC50, Emax), called comparative CRF binding; type: cell-based
T1 sequence (Q13324 1-411): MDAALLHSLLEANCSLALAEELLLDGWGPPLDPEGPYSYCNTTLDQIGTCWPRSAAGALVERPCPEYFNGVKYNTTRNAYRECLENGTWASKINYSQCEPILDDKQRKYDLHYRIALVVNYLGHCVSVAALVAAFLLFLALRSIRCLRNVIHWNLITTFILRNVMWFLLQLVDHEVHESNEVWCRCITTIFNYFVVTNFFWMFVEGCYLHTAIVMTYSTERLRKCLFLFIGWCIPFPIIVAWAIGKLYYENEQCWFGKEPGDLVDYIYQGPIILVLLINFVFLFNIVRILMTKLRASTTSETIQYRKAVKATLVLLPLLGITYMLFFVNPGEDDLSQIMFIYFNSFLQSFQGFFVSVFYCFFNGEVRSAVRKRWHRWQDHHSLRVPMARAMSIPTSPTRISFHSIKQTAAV
From the text: (§1) The pharmacological activity and selectivity of the peptides of present invention can be determined using published test procedures. See, e.g, U.S. patent application Ser. No. 09/799,978. Because CRF2R and CRF1R are homologous proteins, it is expected that a certain proportion of agonists for CRF2R will also function as agonists of CRF1R. As discussed above, activation of CRF1R induces activation of the HPA axis since increased corticosteroid production leads to skeletal muscle atrophy. In most cases in which an increase in muscle mass or function is desired, it is not desirable to activate the HPA axis.
(§2) Because it is desirable to discriminate binding between CRF2R, as compared with CRF1R, the assays described above may be conducted using a cell, or membrane from a cell, which expresses only CRF2R or the assays can be conducted with a recombinant source of CRF2R. Cells expressing both forms of CRFR may be modified using homologous recombination to inactivate or otherwise disable the CRF1R gene. Alternatively, if the source of CRFR contains more than one CRFR type, the background signal produced by the receptor which is not of interest must be subtracted from the signal obtained in the assay. […] Known antagonists of CRFRs include, but, are not limited to, antalarmin (CRF1R selective), antisauvagine-30 (CRF2R selective) and astressin (nonselective for CRF1R/CRF2R).
(§3) Cell-based assays include the steps of contacting cells which express CRF1R or CRF2R with a peptide of the present invention or control and measuring activation of the CRFR by measuring the expression or activity of components of the CRFR signal transduction pathways.
(§4) As described in the background section above, CRFRs appear to couple through several different pathways including Gαs, Gαq or Gαi, depending upon the cell type. It is thought that agonist activation of CRFR allows the receptor to signal via any of these pathways, provided that the necessary pathway components are present in the particular cell type. Thus, to assay a particular peptide of the present invention for CRFR activation, an assay can use any of the signal transduction pathways as the readout even if the relevant cell type for treatment, in vivo, couples CRFR to skeletal muscle atrophy via a different pathway. […] Assays for measuring activation of these signaling pathways are known in the art.
(§5) For example, after contact with a peptide of the present invention, lysates of the cells can be prepared and assayed for induction of cAMP. cAMP is induced in response to Gαs activation. Because Gαs is activated by receptors other than CRFR and because a test peptide may be exerting its effect through CRFRs or by another mechanism, two control comparisons are relevant for determining whether the peptide increases levels of cAMP via activation of a CRFR. One control compares the cAMP level of cells contacted with the peptide and the cAMP level of cells contacted with a control compound (i.e., the vehicle in which the peptide is dissolved).
(§6) In one example, cAMP induction is measured with the use of DNA constructs containing the cAMP responsive element linked to any of a variety of reporter genes can be introduced into cells expressing CRFRs. Such reporter genes include, but are not limited to, chloramphenicol acetyltransferase (CAT), luciferase, glucuronide synthetase, growth hormone, fluorescent proteins (e.g., Green Fluorescent Protein), or alkaline phosphatase. Following exposure of the cells to the peptide, the level of reporter gene expression can be quantitated to determine the peptide's ability to increase cAMP levels and thus determine the peptide's ability to activate the CRFR.
(§7) In addition to using cells expressing full length CRFRs, cells can be engineered which express CRFRs containing the ligand binding domain of the receptor coupled to, or physically modified to contain, reporter elements or to interact with signaling proteins.

CRF1R = molecular target: T2, CRF1R (Homo sapiens, UniProt P34998); experiment: CRF1R agonist activity (EC50, Emax), called comparative CRF binding; type: cell-based
T2 sequence (P34998 24-415): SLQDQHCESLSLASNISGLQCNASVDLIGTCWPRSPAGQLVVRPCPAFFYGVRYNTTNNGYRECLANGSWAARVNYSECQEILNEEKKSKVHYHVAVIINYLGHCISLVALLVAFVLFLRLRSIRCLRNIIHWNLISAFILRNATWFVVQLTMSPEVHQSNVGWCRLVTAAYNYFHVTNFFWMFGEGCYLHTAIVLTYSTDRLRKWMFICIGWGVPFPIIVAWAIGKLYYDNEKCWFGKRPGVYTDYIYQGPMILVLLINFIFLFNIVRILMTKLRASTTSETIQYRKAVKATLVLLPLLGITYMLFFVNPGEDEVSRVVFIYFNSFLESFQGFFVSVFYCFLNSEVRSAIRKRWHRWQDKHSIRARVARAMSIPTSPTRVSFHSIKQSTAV
From the text: as §1, §2, §3, §4, §5, §6, §7

Row | Compound | EC50 (CRF2R) | EC50 (CRF1R)
1 | CC[C@H](C)[C@H](NC(=O)[C@@H](NC(=O)[C@H](CC(=O)O)NC(=O)[C@H](CC(C)C)NC(=O)[C@H](CC(C)C)NC(=O)[C@H](CC(C)C)NC(=O)[C@H](CCCNC(=N)N)NC(=O)[C@H](CC(N)=O)NC(=O)[C@H](CC(N)=O)NC(=O)[C@H](C)NC(=O)[C@H](C)NC(=O)[C@H](CCC(N)=O)NC(=O)[C@H](CCC(N)=O)NC(=O)[C@H](CCCCN)NC(=O)[C@H](CCC(=O)O)NC(=O)[C@H](CCCCN)NC(=O)[C@H](CCC(=O)O)NC(=O)[C@H](CCC(N)=O)NC(=O)[C@H](CCCCN)NC(=O)[C@H](CCC(=O)O)NC(=O)[C@@H](NC(=O)[C@H](CCC(=O)O)NC(=O)[C@@H](NC(=O)[C@H](CCSC)NC(=O)[C@H](CCCCN)NC(=O)[C@H](CCCNC(=N)N)NC(=O)[C@H](CC(C)C)NC(=O)[C@H](CC(C)C)NC(=O)[C@H](CCC(N)=O)NC(=O)[C@H](CC(C)C)NC(=O)[C@@H]1CCCN1C(=O)[C@H](CC(C)C)NC(=O)[C@H](CC(=O)O)NC(=O)[C@@H](NC(=O)[C@H](CO)NC(=O)[C@@H](NC(=O)[C@@H]1CCCN1C(=O)[C@@H]1CCCN1C(=O)CNC(=O)[C@@H]1CCC(=O)N1)[C@@H](C)CC)[C@@H](C)CC)[C@@H](C)CC)[C@@H](C)CC)[C@@H](C)O)C(N)=O [compound 80] | 6.53 nM | > 100 nM
2 | CC[C@H](C)[C@H](NC(=O)[C@@H](NC(=O)[C@H](C)NC(=O)[C@H](CC(C)C)NC(=O)[C@H](CC(C)C)NC(=O)[C@H](CC(C)C)NC(=O)[C@H](C)NC(=O)[C@H](CC(N)=O)NC(=O)[C@H](CC(N)=O)NC(=O)[C@H](C)NC(=O)[C@H](C)NC(=O)[C@H](CCC(N)=O)NC(=O)[C@H](CCC(N)=O)NC(=O)[C@H](CCCCN)NC(=O)[C@H](CCC(=O)O)NC(=O)[C@H](CCCCN)NC(=O)[C@H](CCC(=O)O)NC(=O)[C@H](CCC(N)=O)NC(=O)[C@H](CCCCN)NC(=O)[C@H](CCC(=O)O)NC(=O)[C@@H](NC(=O)[C@H](CCC(=O)O)NC(=O)[C@@H](NC(=O)[C@@H](NC(=O)[C@H](CCC(=O)O)NC(=O)[C@H](CCCNC(=N)N)NC(=O)[C@H](CC(C)C)NC(=O)[C@H](CC(C)C)NC(=O)[C@H](CCC(N)=O)NC(=O)[C@H](Cc1ccccc1)NC(=O)[C@@H]1CCCN1C(=O)[C@H](CC(C)C)NC(=O)[C@H](CC(=O)O)NC(=O)[C@@H](NC(=O)[C@H](CO)NC(=O)[C@@H](NC(=O)[C@@H]1CCCN1C(=O)[C@@H]1CCCN1C(=O)CNC(=O)[C@@H]1CCC(=O)N1)[C@@H](C)CC)[C@@H](C)CC)C(C)C)[C@@H](C)CC)[C@@H](C)CC)[C@@H](C)O)C(N)=O [compound 359] | 23.1 nM | 230 nM
3 | CC[C@H](C)[C@H](NC(=O)[C@H](Cc1c[nH]cn1)NC(=O)[C@H](C)NC(=O)[C@H](CC(C)C)NC(=O)[C@H](CC(C)C)NC(=O)[C@H](Cc1c[nH]cn1)NC(=O)[C@H](C)NC(=O)[C@H](CC(N)=O)NC(=O)[C@H](CC(N)=O)NC(=O)[C@H](C)NC(=O)[C@H](C)NC(=O)[C@H](CCC(N)=O)NC(=O)[C@H](CCC(N)=O)NC(=O)[C@H](CCCCN)NC(=O)[C@H](CCC(=O)O)NC(=O)[C@H](CCCCN)NC(=O)[C@H](CCC(=O)O)NC(=O)[C@H](CCC(N)=O)NC(=O)[C@H](CCCCN)NC(=O)[C@H](CCC(=O)O)NC(=O)[C@@H](NC(=O)[C@H](CCC(=O)O)NC(=O)[C@@H](NC(=O)[C@@H](NC(=O)[C@H](CCCCN)NC(=O)[C@H](CCCNC(=N)N)NC(=O)[C@H](CC(C)C)NC(=O)[C@H](CC(C)C)NC(=O)[C@H](CCC(N)=O)NC(=O)[C@H](Cc1ccccc1)NC(=O)[C@@H]1CCCN1C(=O)[C@H](CC(C)C)NC(=O)[C@H](CC(=O)O)NC(=O)[C@@H](NC(=O)[C@H](CO)NC(=O)[C@@H](NC(=O)[C@@H]1CCCN1C(=O)[C@@H]1CCCN1C(=O)CNC(=O)[C@@H]1CCC(=O)N1)[C@@H](C)CC)[C@@H](C)CC)C(C)C)[C@@H](C)CC)[C@@H](C)CC)C(N)=O [compound 277] | 28.2 nM | ≥ 1000 nM
4 | CC[C@H](C)[C@H](NC(=O)[C@@H](NC(=O)[C@H](CC(=O)O)NC(=O)[C@H](CC(C)C)NC(=O)[C@H](CC(C)C)NC(=O)[C@H](CCCNC(=N)N)NC(=O)[C@H](C)NC(=O)[C@H](CC(N)=O)NC(=O)[C@H](CC(N)=O)NC(=O)[C@H](C)NC(=O)[C@H](C)NC(=O)[C@H](CCC(N)=O)NC(=O)[C@H](CCC(N)=O)NC(=O)[C@H](CCCCN)NC(=O)[C@H](CCC(=O)O)NC(=O)[C@H](CCCCN)NC(=O)[C@H](CCC(=O)O)NC(=O)[C@H](CCC(N)=O)NC(=O)[C@H](CCCCN)NC(=O)[C@H](CCC(=O)O)NC(=O)[C@@H](NC(=O)[C@H](CCC(=O)O)NC(=O)[C@@H](NC(=O)[C@@H](NC(=O)[C@H](CCCCN)NC(=O)[C@H](CCCNC(=N)N)NC(=O)[C@H](CC(C)C)NC(=O)[C@H](CC(C)C)NC(=O)[C@H](Cc1c[nH]cn1)NC(=O)[C@H](Cc1ccc(O)cc1)NC(=O)[C@@H]1CCCN1C(=O)[C@@H](NC(=O)[C@H](CC(=O)O)NC(=O)[C@@H](NC(=O)[C@H](CO)NC(=O)[C@@H](NC(=O)[C@@H]1CCCN1C(=O)[C@@H]1CCCN1C(=O)CNC(=O)[C@@H]1CCC(=O)N1)[C@@H](C)CC)[C@@H](C)CC)C(C)C)C(C)C)[C@@H](C)CC)[C@@H](C)CC)[C@@H](C)O)C(N)=O [compound 376] | 52.5 nM | ≥ 1000 nM
5 | CC[C@H](C)[C@H](NC(=O)[C@H](CCCNC(=N)N)NC(=O)[C@H](C)NC(=O)[C@H](CC(N)=O)NC(=O)[C@@H](NC(=O)[C@@H](NC(=O)[C@H](C)NC(=O)[C@H](CCC(N)=O)NC(=O)[C@H](CCC(N)=O)NC(=O)[C@H](CCCCN)NC(=O)[C@H](CCC(=O)O)NC(=O)[C@H](CCCCN)NC(=O)[C@H](CCC(=O)O)NC(=O)[C@H](CCC(N)=O)NC(=O)[C@H](CCCCN)NC(=O)[C@H](CCC(=O)O)NC(=O)[C@@H](NC(=O)[C@H](CCC(=O)O)NC(=O)[C@@H](NC(=O)[C@H](CCSC)NC(=O)[C@H](CCCCN)NC(=O)[C@H](CCCNC(=N)N)NC(=O)[C@H](CC(C)C)NC(=O)[C@H](CC(C)C)NC(=O)[C@H](Cc1c[nH]cn1)NC(=O)[C@H](CC(C)C)NC(=O)[C@@H]1CCCN1C(=O)[C@H](CC(C)C)NC(=O)[C@H](CC(=O)O)NC(=O)[C@@H](NC(=O)[C@H](CO)NC(=O)[C@@H](NC(=O)[C@@H]1CCCN1C(=O)[C@@H]1CCCN1C(=O)CNC(=O)[C@@H]1CCC(=O)N1)[C@@H](C)CC)[C@@H](C)CC)[C@@H](C)CC)[C@@H](C)CC)[C@@H](C)O)[C@@H](C)O)C(=O)N[C@@H](CC(C)C)C(=O)N[C@@H](C)C(=O)N[C@@H](CCCNC(=N)N)C(=O)N[C@H](C(N)=O)C(C)C [compound 145] | 7.8 nM | 196 nM

Source: patent US7192924B2, “Corticotropin releasing factor 2 receptor agonists” (priority 2002, dated 2007)
